How the values were obtained:
[1] = system: isolated rat hearts, ischemia/reperfusion injury; assay: Infarct size (TTC staining) after ischemia/reperfusion in isolated rat hearts; settings: 20 nM for 20 min at onset of reperfusion; 20 min ischemia/90 min reperfusion
[2] = system: subsarcolemmal (SSM) and interfibrillar (IFM) mitochondria of isolated rat hearts; assay: Peptide uptake into SSM and IFM mitochondria of Langendorff-perfused rat hearts
[3] = system: isolated rat hearts, ischemia/reperfusion injury; assay: Cardiac troponin I release (ELISA) after ischemia/reperfusion in isolated rat hearts; settings: 20 nM for first 20 min of reperfusion
[4] = system: neonatal rat cardiac myocytes (NCMs) mitochondria; assay: Peptide uptake into gradient-purified mitochondria of NCMs (anti-Flag Western blot); settings: 100 nM
[5] = Trypsin digestion of peptide alone, anti-Flag Western blot; settings: 100 units/ml trypsin, 20 minutes

For “YGRKKRRQRRR-MLATRALSLIGKRAISTSVC-AGRKLALKTIDWVSF-DYKDDD DK”, the “reduction of infarct size” value [1] was 34±8%, the “Flag immunoreactivity after in vitro trypsin incubation of SSM and IFM” value ([2]; 20 nM perfused hearts) was “no loss in Flag immunoreactivity” and the “delivery to IFM” value ([2]; 20 nM, 60 minute perfusion) was “substantial delivery”. For the same substance, the “delivery to SSM compared with IFM” value ([2]; 20 nM, perfusion 20 or 60 minutes) was “more efficient”, the “reduction of cardiac troponin I fragment release compared to scrambled sequence peptide” value [3] was 55±11% and the “uptake of peptide into gradient-purified mitochondria” value ([4]; 2 hrs at 37° C., NCMs) was “substantial uptake”. For the same substance, the “peptide uptake signal after trypsin incubation of isolated mitochondria” value ([4]; 2 hrs, mitochondria incubated with 100 units/ml trypsin) was “not altered” and the “sensitivity to digestion with trypsin” value [5] was “extensive sensitivity”.
